These are literature values, as cited in patent publication US20070027110A1, “Double salts of (-)-hydroxycitric acid with an amine and a group II a metal and a process for preparing the same” (priority 2004, published 2007).

For this data set the following is noted: prior-art salt (Singh et al.).

With calcium salt of HCA, the solubility in water result is recorded as “not very soluble in water”.
